This assay deals with human CB1 (cannabinoid receptor 1) (Homo sapiens, UniProt P21554). The assay is described as follows: CB1 receptor inhibition effect: calcium ion influx assay (Fluo-4 NW) in Chem-1 cells after 1 μM R-(+)-WIN55212-2. To be noted: calcium ion influx in Chem-1 cells expressing human CB1, 1 μM R-(+)-WIN55212-2. How it is done:
When cells in which the cannabinoid receptor 1 (CB1) is stably expressed are treated with a CB1 receptor agonist, the CB1 receptor is activated and influx of calcium ions into the cells increases. CB1 receptor inhibition effect of a test compound can be evaluated by measuring the degree of calcium influx inhibition after treating with the test compound.
First, Chem-1 cells (Chemicon International, #HTS019C) in which human CB1 cDNA is expressed stably were seeded onto a 96-well cell culture plate at a density of ˜50,000 cells/well and incubated overnight in a 5% CO2 incubator at 37° C. The next day, the culture medium was discarded and the cells were cautiously washed once using an assay buffer (HBSS containing 20 mM HEPES and 2.5 mM probenecid) with 200 μL/well. Calcium ion influx was measured using an assay kit (Fluo-4 NW calcium assay kit: Molecular Probes™, #F36206) according to the manufacturer's instructions. The compounds of Examples of desired concentration to be measured were comprised to 0.5% DMSO. For control, only 0.5% DMSO was used without the compounds of Examples. Reaction time was 10 minutes. After treating the Chem-1 cells stably expressing the CB1 receptor with 1 μM R-(+)-WIN55212-2 (Sigma, #W102), a CB1 receptor agonist, calcium ion (Ca^2+) flux induced thereby was measured for 80 seconds using Flex Station 3 (Molecular Device, USA).
The difference in calcium ion concentration of the cells treated with the compounds of Examples or those treated with 1 μM R-(+)-WIN55212-2 was obtained from the difference of the maximum and minimum values during the 80 seconds. Then, % inhibition of the compounds for the CB1 receptor was calculated using the following equation. % inhibition={1−(ΔRFUcompound−ΔRFUBlank)/(ΔRFUControl−ΔRFUBlank)}×100 [Equation]
ΔRFU: maximum relative fluorescence units−minimum relative fluorescence units
ΔRFUCompound: difference in maximum and minimum RFUs in the well where the compounds of Examples dissolved in DMSO to a final concentration of 0.5% and 1 μM R-(+)-WIN55212-2 dissolved in DMSO to a final concentration of 0.5% were added
ΔRFUBlank: difference in maximum and minimum RFUs in the well to which only 1% DMSO was added
ΔRFUControl: difference in maximum and minimum RFUs in the well where 0.5% DMSO and 1 μM R-(+)-WIN55212-2 dissolved in DMSO to a final concentration of 0.5% were added

Amino acid sequences for entries named in this document (tags omitted).
UniProt P21554, whole entry: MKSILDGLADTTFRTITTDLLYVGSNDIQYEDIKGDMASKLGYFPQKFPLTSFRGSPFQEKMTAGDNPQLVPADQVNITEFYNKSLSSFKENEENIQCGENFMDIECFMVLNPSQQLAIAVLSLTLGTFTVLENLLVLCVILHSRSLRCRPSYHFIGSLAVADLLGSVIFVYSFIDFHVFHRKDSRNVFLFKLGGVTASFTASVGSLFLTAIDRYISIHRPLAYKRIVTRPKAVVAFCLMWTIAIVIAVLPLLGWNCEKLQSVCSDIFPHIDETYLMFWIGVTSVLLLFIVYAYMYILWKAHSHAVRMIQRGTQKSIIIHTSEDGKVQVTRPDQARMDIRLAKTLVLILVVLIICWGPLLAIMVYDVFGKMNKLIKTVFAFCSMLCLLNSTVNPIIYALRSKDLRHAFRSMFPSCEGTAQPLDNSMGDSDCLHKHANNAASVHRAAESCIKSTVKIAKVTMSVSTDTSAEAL

Regarding `CCOCc1ccc(-c2c(C)nn3c(-c4cccc(C(F)(F)F)c4)cc(N4CCC[C@H]4CO)nc23)cc1`, the 50% inhibitory concentration (IC50) was found to be 0.23 µM.

In the case of `COc1cccc(-c2cc(N3CCC[C@H]3CO)nc3c(-c4ccc5c(c4)OCO5)c(C)nn23)c1`, the IC50 is 0.3 µM.

On to `CSc1cccc(-c2c(C)nn3c(-c4cccc(C(F)(F)F)c4)cc(N4CCC[C@H]4CO)nc23)c1`, for which the IC50 is 0.062 µM.

With `CCc1ccc(-c2c(C)nn3c(-c4cccc(C)c4)cc(N4CCC[C@H]4CO)nc23)cc1`, the half-maximal inhibitory concentration (IC50) was determined as 0.32 µM.

On to `CCCc1ccc(-c2c(C)nn3c(-c4cccc(Cl)c4)cc(N4CCC[C@H]4CO)nc23)cc1`, for which the IC50 was 0.35 µM.

As usually defined, the IC50 is the concentration that inhibits the measured activity by half.
